Article PMC10803289, “Transport and inhibition mechanism of the human SGLT2–MAP17 glucose transporter” (Nature Structural & Molecular Biology, 2023)

Experiments:
hSGLT2 F453A = target: T1, hSGLT2 F453A (Homo sapiens, UniProt P31639, F453A); assay: SGLT2 inhibitor-binding assay (AS-MS), crude membrane, F453A mutant; set-up: expressed in transfected cells; host or cells: Expi293 cells, crude membrane fraction; conditions: for Binding (% of WT Bmax): F453A
T1 sequence (P31639 1-672 F453A): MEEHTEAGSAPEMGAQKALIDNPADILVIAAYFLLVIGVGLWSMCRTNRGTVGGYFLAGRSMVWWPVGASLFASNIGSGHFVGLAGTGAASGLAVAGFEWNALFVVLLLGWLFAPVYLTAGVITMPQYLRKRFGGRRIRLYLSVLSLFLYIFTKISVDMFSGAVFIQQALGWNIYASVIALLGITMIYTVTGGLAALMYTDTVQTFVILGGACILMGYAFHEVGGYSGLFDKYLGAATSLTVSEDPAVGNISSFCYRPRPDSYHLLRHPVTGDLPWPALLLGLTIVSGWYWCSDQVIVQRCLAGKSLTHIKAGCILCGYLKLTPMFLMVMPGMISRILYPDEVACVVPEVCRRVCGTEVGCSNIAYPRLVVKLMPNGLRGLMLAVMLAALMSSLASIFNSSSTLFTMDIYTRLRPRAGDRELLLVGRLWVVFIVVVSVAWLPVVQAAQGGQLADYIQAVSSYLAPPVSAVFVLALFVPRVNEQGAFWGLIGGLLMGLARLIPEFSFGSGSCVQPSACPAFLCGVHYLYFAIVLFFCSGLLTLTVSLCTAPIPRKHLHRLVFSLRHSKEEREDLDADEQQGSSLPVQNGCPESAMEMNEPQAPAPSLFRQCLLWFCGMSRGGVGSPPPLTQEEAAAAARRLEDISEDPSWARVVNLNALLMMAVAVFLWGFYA
T1 sequence (Q13113 1-114 partner): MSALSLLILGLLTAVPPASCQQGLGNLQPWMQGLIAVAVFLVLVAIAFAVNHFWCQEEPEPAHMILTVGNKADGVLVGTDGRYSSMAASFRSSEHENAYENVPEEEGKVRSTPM
Description: (§1) hSGLT2 complementary DNA and human MAP17 cDNA were synthesized and codon-optimized for expression in human cell lines. Both cDNAs were cloned into the pcDNA3.4 vector. The hSGLT2 sequence was fused with an N-terminal signal sequence from human trypsinogen 1, a His10 tag, and sfGFP, followed by a human rhinovirus 3C protease (HRV3C protease) recognition site. Point mutations were introduced into this construct using site-directed mutagenesis. These plasmids were utilized for all experimental procedures conducted in this study.
To examine the inhibition of binding to the crude membrane, mammalian Expi293 cells were co-transfected with the hMAP17 and hSGLT2 plasmids, as described. The cells were collected and disrupted by sonication in a hypotonic buffer (50 mM HEPES–NaOH (pH 7.5), 10 mM KCl and protease inhibitor cocktail) or Na^+-free hypotonic buffer (50 mM Tris–HCl (pH 7.5), 10 mM KCl and protease inhibitor cocktail). The cell debris were removed by centrifugation (2,000g, 5 min, 4 °C). The membrane fraction was collected by ultracentrifugation (112,000g, 30 min, 4 °C) and stored at −80 °C before use. […] The extract solution from the filter plate was diluted with water containing candesartan as an internal standard, and the SGLT2 inhibitor concentration was quantified via LC–MS/MS.
Nonspecific binding was measured using the crude membrane of nontransfected Expi293 cells. Specific binding was calculated by subtracting nonspecific binding from the binding of hSGLT2-expressing cells. Specific binding was normalized to hSGLT2 protein expression levels, measured via FSEC. The equilibrium dissociation constant (Kd) and maximum number of binding sites (Bmax) were calculated via nonlinear regression in GraphPad Prism 8.4.3. […]
The concentrations of the extract solution from the filter plate and of the cell lysate were quantified using a tandem mass spectrometry QTRAP6500 System (SCIEX) coupled with an ACQUITY UPLC system (Waters) using the internal standard method. […]

hSGLT2 D201A = target: T2, hSGLT2 D201A (Homo sapiens, UniProt P31639, D201A); assay: SGLT2 inhibitor-binding assay (AS-MS), crude membrane, D201A mutant; set-up: expressed in transfected cells; host or cells: Expi293 cells, crude membrane fraction; conditions: for Binding Mean: Eadie–Hofstee
T2 sequence (P31639 1-672 D201A): T1 sequence (P31639 1-672 F453A) with D201A, A453F
T2 sequence (Q13113 1-114 partner): T1 sequence (Q13113 1-114 partner)
Description: as §1
To examine the inhibition of binding to the crude membrane, mammalian Expi293 cells were co-transfected with the hMAP17 and hSGLT2 plasmids, as described. The cells were collected and disrupted by sonication in a hypotonic buffer (50 mM HEPES–NaOH (pH 7.5), 10 mM KCl and protease inhibitor cocktail) or Na^+-free hypotonic buffer (50 mM Tris–HCl (pH 7.5), 10 mM KCl and protease inhibitor cocktail). The cell debris were removed by centrifugation (2,000g, 5 min, 4 °C). The membrane fraction was collected by ultracentrifugation (112,000g, 30 min, 4 °C) and stored at −80 °C before use. The crude membrane (250 μg per sample) was incubated with SGLT2 inhibitor in an assay buffer (100 mM NaCl and 10 mM HEPES/Tris, pH 7.4) or Na^+-free assay buffer (100 mM choline chloride and 10 mM HEPES/Tris, pH 7.4) at room temperature for 2 h. Reactions were terminated by filtration through a GF/C filter plate (Corning) presoaked in assay buffer containing 0.1% bovine serum albumin. The sample in the filter plate was washed three times with the assay buffer and eluted with acetonitrile: water (80:20, v/v). The extract solution from the filter plate was diluted with water containing candesartan as an internal standard, and the SGLT2 inhibitor concentration was quantified via LC–MS/MS.
Nonspecific binding was measured using the crude membrane of nontransfected Expi293 cells. Specific binding was calculated by subtracting nonspecific binding from the binding of hSGLT2-expressing cells. Specific binding was normalized to hSGLT2 protein expression levels, measured via FSEC. The equilibrium dissociation constant (Kd) and maximum number of binding sites (Bmax) were calculated via nonlinear regression in GraphPad Prism 8.4.3. The specific binding of the hSGLT2 mutants was normalized to the Bmax of WT hSGLT2.
The concentrations of the extract solution from the filter plate and of the cell lysate were quantified using a tandem mass spectrometry QTRAP6500 System (SCIEX) coupled with an ACQUITY UPLC system (Waters) using the internal standard method. Mobile phases A and B used 10 mM of ammonium bicarbonate and acetonitrile, respectively.

SMILES: O=C(CCc1ccc(O)cc1)c1c(O)cc(O)cc1O[C@@H]1O[C@H](CO)[C@@H](O)[C@H](O)[C@H]1O [Phlorizin]
- phlorizin binding (in words) (hSGLT2 F453A; F453A single mutant): did not bind
- Binding (% of WT Bmax) (hSGLT2 F453A; Phlorizin 25 nM): 0.0000%
- Binding (% of WT Bmax) (hSGLT2 F453A; Phlorizin 50 nM): 0.0000%
- low-affinity binding phase (hSGLT2 D201A; D201A mutant): lost
- Binding Mean (hSGLT2 D201A; D201A, phlorizin 25 nM (inferred)): 0.7940
- Binding Mean (hSGLT2 D201A; D201A, phlorizin 50 nM (inferred)): 1.4992
- Binding Mean (hSGLT2 D201A; D201A, phlorizin 100 nM (inferred)): 1.6708
- Binding Mean (hSGLT2 D201A; D201A, phlorizin 200 nM (inferred)): 2.1498
- Binding Mean (hSGLT2 D201A; D201A, phlorizin 300 nM (inferred)): 2.5194
- Binding Mean (hSGLT2 D201A; D201A, phlorizin 500 nM (inferred)): 2.9852
- Binding Mean (hSGLT2 D201A; D201A, phlorizin 1000 nM (inferred)): 3.0310
- Binding Mean (hSGLT2 D201A; D201A, phlorizin 3000 nM (inferred)): 3.7555
- Binding Mean (hSGLT2 D201A; D201A, phlorizin 5000 nM (inferred)): 2.5874
- Bmax1 (hSGLT2 D201A; phlorizin, D201A, mean ± SEM n=3): 0.550 ± 0.028 pmol/mg-protein

Substitutions are numbered along the chain they refer to.
